Amino acid sequences for entries named in this document (tags omitted).
UniProt P32245, whole entry: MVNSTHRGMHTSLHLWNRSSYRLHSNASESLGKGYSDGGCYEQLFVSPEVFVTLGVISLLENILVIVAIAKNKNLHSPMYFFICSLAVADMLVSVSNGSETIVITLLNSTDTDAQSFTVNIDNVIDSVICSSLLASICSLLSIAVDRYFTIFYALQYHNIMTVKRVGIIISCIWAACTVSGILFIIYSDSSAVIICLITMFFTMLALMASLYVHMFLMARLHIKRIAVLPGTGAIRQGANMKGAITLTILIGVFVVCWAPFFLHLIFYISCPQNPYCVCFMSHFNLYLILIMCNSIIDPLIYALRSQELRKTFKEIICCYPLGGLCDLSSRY
UniProt P33032, whole entry: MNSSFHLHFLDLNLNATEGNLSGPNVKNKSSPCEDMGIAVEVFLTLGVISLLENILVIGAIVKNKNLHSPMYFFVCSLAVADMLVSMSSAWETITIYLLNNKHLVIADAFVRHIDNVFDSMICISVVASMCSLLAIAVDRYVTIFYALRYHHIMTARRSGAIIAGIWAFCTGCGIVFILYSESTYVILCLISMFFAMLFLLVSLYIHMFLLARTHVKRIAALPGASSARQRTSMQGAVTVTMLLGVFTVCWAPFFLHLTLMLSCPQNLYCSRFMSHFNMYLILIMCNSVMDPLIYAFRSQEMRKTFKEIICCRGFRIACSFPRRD
UniProt P41968, whole entry: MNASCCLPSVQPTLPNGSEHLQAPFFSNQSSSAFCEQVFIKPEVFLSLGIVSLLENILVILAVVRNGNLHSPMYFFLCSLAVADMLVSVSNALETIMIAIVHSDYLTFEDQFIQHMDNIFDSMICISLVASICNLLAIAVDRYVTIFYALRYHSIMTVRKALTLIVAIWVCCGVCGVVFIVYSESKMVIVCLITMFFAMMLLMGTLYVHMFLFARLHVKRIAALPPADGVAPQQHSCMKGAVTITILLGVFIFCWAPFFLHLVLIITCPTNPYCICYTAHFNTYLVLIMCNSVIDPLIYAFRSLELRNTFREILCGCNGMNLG

According to patent US9458195B2, “Melanocortin receptor ligands” (Ipsen Pharma S.A.S., priority 2005, dated 2016):

Key:
hMC4-R = hMC4-R (Homo sapiens, UniProt P32245); test: Radioligand binding assay, [125I]-NDP-α-MSH competition, hMC4-R; details: read-out: Ki hMC4-R, CHO-K1 cell membranes
hMC5-R = hMC5-R (Homo sapiens, UniProt P33032); test: Radioligand binding assay, [125I]-NDP-α-MSH competition, hMC5-R; details: read-out: Ki hMC5-R, CHO-K1 cell membranes
hMC3-R = hMC3-R (Homo sapiens, UniProt P41968); test: Radioligand binding assay, [125I]-NDP-α-MSH competition, hMC3-R; details: read-out: Ki hMC3-R, CHO-K1 cell membranes

CCCC[C@H](NC(C)=O)C(=O)N[C@H]1CC(=O)NCCCC[C@@H](C(N)=O)NC(=O)CCCNC(=O)[C@H](Cc2c[nH]c3ccccc23)NC(=O)[C@H](CCCNC(=N)N)NC(=O)[C@@H](Cc2ccccc2)NC(=O)[C@H](Cc2cnc[nH]2)NC1=O
Ki (hMC4-R): 1.04 nM
Ki (hMC5-R): 16.3 nM
Ki (hMC3-R): 9.89 nM
